Measurements as given in ChEMBL document CHEMBL3639038, “Fused pyridine, pyrimidine and triazine compounds as cell cycle inhibitors” (2014).

Protein sequences, listed by entry. Tags and fused reporters are not part of them.
UniProt Q00534, whole entry: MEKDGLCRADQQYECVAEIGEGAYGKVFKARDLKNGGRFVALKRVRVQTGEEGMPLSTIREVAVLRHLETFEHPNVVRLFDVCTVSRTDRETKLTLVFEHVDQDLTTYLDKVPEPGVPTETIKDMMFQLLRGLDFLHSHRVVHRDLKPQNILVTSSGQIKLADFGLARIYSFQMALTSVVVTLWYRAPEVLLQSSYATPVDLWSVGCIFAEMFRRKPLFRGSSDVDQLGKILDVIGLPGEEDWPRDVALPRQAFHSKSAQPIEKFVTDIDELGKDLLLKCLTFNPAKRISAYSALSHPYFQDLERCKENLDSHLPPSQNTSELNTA

Target: Cyclin-dependent kinase 6 (Homo sapiens, UniProt Q00534)
Experiment: In Vitro Assay: The Cdk4 and Cdk6 inhibitory activity of the compounds is measured with a kinase inhibition assay using recombinant Cdk4/CyclinD1 or Cdk6/CyclinD3 protein complexes. The protein substrate used in the assay is the retinoblastoma protein (Rb). The kinase reactions are carried out in a 96-well filter plate (MSDV N6B50, Millipore). […] The mixture is incubated at room temperature for 1 hour and the proteins precipitated with an equal volume of 20% TCA. The plates are washed with 10% TCA according to the manufacturer's instruction and dried at room temperature. The amount of the phosphorylated Rb is determined with a TopCount (PerkinElmer).

Structure (SMILES): COCCN1CCN(c2ccc(Nc3ncc4c5ccncc5n(C5CCCC5)c4n3)nc2)CC1
- IC50: 4.9 nM
